Reference: article PMC8258697 (The Journal of Biological Chemistry, 2021)

By UniProt entry, the sequences of proteins in these tests, tags left out. Residues count along the entry.
UniProt P37231, 234-505: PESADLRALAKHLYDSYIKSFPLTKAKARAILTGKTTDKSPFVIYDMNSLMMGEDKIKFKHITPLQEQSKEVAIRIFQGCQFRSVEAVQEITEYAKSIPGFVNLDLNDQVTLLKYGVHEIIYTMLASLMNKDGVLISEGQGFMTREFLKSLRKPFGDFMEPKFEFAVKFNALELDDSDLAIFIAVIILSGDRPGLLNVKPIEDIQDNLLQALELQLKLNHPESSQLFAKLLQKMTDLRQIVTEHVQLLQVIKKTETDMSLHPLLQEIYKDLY

Assays:
PPARγ LBD = PPARγ LBD (Homo sapiens, UniProt P37231); assay: Monomer cofactor recruitment HTRF assay: CBP-1 recruitment by isolated sGFP-PPARγ LBD; assay type: biochemical; parameters: His10-tag with TEV site (N, cleaved yes); made in house; host or cells: E. coli T7 express (co-expressed with GroEL/ES); details: 100 nM sGFP-PPARγ LBD, read-out: Monomer recruitment, agonist mode, Potency (EC50)
[1] = biological target: T1, PPARγ LBD in complex with RXRα LBD (Homo sapiens, UniProt P37231); assay: Heterodimer coactivator recruitment HTRF assay: CBP-1 recruitment by PPARγ LBD in complex with sGFP-RXRα LBD total mutant; assay type: biochemical; details: 100 nM PPARγ LBD, 2 μM sGFP-RXRα total mutant, read-out: Dimer recruitment, agonist mode, Potency (EC50)
T1 construct: His10-tag with TEV site (N, cleaved yes); made in house; host or cells: E. coli T7 express (co-expressed with GroEL/ES)

GW1929 showed an EC50 (PPARγ LBD) of 44 ± 3 nM and an EC50 [1] of 87 ± 7 nM.
